# Paper PMC12044326 (Clinical Pharmacology in Drug Development, 2025)
# By UniProt entry, the sequences of proteins in these tests, tags left out. Residues count along the entry.
# UniProt P08684, 2-503: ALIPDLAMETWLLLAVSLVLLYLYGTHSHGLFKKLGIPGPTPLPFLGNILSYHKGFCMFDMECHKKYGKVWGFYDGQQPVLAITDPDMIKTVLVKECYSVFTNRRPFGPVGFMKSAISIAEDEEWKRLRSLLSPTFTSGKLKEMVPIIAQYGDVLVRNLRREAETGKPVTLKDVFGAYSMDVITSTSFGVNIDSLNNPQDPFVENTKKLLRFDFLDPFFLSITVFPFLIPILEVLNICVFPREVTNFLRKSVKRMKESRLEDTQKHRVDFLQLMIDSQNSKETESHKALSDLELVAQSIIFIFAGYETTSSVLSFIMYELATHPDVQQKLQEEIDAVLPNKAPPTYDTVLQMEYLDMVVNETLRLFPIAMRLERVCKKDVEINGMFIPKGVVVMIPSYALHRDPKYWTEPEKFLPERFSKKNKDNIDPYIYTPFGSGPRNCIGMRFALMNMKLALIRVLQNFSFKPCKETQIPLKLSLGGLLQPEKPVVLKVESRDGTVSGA
# Molecular target: CYP3A4 (Homo sapiens, UniProt P08684)
# Assay: in vitro
# Settings: both, pH 7.4
compound,measurement,value
O=C(c1cccnc1-c1ccncc1)N1CCC(O)(Cc2ccccc2)CC1 [Soticlestat],Ki at 5 min,12.4 µM
